# Experimental data as given in paper PMC6152004 (Molecules : A Journal of Synthetic Chemistry and Natural …, 2017).
# Molecular target: T1, recombinant prolyl oligopeptidase (POP) (Homo sapiens, UniProt P48147)
# T1 construct: purchased Sigma-Aldrich (Prague, Czech Republic)
# T1 sequence (P48147 1-710): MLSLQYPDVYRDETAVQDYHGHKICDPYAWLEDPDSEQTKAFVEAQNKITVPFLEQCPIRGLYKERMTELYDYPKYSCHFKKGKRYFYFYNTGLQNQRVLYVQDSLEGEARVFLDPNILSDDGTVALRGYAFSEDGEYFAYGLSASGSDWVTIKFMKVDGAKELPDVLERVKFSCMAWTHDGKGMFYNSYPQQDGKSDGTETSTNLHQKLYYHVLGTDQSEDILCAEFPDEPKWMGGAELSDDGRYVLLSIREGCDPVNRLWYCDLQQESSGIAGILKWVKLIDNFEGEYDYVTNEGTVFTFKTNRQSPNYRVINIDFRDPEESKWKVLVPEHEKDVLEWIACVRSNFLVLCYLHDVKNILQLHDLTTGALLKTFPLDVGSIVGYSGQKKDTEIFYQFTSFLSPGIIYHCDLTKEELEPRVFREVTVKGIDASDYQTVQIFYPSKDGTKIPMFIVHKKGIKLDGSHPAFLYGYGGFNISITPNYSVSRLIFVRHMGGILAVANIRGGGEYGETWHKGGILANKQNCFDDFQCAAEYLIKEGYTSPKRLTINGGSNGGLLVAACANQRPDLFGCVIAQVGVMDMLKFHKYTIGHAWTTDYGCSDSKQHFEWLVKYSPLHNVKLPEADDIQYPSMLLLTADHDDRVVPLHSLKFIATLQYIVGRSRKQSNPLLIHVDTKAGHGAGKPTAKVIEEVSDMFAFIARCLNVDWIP
# Assay: Prolyl oligopeptidase assay, substrate Z-Gly-Pro-p-nitroanilide
# Format: biochemical
smiles,measurement,value
"COc1ccc2cc3[n+](cc2c1OC)CCc1cc2c(cc1-3)OCO2 [Berberine, berberine chloride, reference compound]",IC50,142 ± 21.5 µM
